The values that follow come from patent US7329652B2, “Diaminotriazole compounds useful as protein kinase inhibitors” (Vertex Pharamaceuticals Incorporated, priority 2004, dated 2008).

Protein sequences, listed by entry. Tags and fused reporters are not part of them.
UniProt O60674, whole entry: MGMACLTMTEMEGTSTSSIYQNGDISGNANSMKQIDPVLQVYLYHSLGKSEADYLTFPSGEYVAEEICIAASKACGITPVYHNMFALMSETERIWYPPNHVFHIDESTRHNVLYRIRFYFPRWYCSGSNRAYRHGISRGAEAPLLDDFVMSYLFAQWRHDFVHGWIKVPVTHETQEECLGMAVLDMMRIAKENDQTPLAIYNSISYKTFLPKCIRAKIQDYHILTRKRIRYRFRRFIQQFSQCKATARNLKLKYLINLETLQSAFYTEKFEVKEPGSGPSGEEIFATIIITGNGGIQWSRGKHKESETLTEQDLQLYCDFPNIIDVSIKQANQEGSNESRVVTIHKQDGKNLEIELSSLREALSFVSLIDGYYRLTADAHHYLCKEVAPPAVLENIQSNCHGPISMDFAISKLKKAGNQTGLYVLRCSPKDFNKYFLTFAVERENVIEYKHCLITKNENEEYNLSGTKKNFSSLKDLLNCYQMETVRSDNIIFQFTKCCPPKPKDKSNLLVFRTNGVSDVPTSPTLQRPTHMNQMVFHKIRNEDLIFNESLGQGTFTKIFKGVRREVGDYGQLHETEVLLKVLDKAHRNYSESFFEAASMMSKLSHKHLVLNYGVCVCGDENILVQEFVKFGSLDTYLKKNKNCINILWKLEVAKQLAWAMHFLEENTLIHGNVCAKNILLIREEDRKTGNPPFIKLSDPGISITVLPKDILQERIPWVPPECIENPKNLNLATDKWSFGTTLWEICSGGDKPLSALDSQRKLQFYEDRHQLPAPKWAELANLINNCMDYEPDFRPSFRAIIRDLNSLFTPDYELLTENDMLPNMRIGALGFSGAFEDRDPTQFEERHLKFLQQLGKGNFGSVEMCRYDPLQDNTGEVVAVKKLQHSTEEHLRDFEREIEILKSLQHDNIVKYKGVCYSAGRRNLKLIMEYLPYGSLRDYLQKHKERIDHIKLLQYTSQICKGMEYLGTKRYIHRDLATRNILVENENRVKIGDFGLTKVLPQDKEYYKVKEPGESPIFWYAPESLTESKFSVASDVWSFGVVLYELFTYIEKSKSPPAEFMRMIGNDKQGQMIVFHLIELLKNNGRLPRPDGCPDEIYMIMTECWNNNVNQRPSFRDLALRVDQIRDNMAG
UniProt P52333, whole entry: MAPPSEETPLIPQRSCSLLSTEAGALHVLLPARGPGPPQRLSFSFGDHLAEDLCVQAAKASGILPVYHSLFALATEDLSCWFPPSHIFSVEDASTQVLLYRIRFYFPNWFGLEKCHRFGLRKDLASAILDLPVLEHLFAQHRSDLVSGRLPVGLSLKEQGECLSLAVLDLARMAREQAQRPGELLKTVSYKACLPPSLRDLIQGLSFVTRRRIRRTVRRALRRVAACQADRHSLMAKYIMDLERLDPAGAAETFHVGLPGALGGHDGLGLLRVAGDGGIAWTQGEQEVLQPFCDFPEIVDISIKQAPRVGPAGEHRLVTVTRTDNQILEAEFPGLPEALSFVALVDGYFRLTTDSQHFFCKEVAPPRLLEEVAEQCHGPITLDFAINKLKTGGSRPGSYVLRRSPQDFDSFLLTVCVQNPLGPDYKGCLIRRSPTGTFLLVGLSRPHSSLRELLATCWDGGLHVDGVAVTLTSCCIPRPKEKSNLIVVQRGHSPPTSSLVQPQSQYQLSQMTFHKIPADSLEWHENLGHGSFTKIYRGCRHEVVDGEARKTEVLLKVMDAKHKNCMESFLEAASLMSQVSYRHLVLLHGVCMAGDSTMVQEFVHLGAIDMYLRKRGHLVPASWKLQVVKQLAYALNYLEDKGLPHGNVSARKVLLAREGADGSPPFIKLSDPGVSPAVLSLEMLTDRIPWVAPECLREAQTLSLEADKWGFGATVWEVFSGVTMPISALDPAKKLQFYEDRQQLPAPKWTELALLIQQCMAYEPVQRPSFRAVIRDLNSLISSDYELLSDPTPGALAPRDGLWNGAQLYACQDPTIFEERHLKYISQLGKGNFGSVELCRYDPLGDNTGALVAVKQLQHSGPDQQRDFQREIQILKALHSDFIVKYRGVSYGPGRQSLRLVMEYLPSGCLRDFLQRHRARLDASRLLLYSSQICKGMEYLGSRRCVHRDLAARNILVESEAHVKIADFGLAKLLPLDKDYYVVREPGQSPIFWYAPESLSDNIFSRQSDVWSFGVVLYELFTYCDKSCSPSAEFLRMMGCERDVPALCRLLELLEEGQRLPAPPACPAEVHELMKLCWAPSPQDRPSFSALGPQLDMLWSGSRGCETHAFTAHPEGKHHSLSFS

For orientation: pKi means the negative decadic logarithm of the Ki, by convention in mol/L.

Test [1] has as its target JAK-2 enzyme (Homo sapiens, UniProt O60674). Put plainly: JAK2 inhibition assay (radiometric 33P filter assay). The conditions noted are these: read-out: JAK2 inhibition data (Ki); 15 μM poly(Glu)4Tyr, 12 μM ATP. It is filed as biochemical. As for the experimental part:
(§1) Compounds were screened for their ability to inhibit JAK using the assay shown below. Reactions were carried out in a kinase buffer containing 100 mM HEPES (pH 7.4), 1 mM DTT, 10 mM MgCl2, 25 mM NaCl, and 0.01% BSA.
(§2) Substrate concentrations in the assay were 5 μM ATP (200 uCi/μmole ATP) and 1 μM poly(Glu)4Tyr. Reactions were carried out at 25° C. and 1 nM JAK3.
(§3) To each well of a 96 well polycarbonate plate was added 1.5 μl of a candidate JAK3 inhibitor along with 50 μl of kinase buffer containing 2 μM poly(Glu)4Tyr and 10 μM ATP. This was then mixed and 50 μl of kinase buffer containing 2 nM JAK3 enzyme was added to start the reaction. After 20 minutes at room temperature (25° C.), the reaction was stopped with 50 μl of 20% trichloroacetic acid (TCA) that also contained 0.4 mM ATP. The entire contents of each well were then transferred to a 96 well glass fiber filter plate using a TomTek Cell Harvester. After washing, 60 μl of scintillation fluid was added and ^33P incorporation detected on a Perkin Elmer TopCount.
The assays were as described above in Example 25 except that JAK-2 enzyme was used, the final poly(Glu)4Tyr concentration was 15 μM, and final ATP concentration was 12 μM.

Test [2] deals with JAK3 (Homo sapiens, UniProt P52333). Put plainly: JAK3 inhibition assay (radiometric 33P filter assay). Type of test: biochemical. To be noted: read-out: JAK3 inhibition data (Ki); 1 μM poly(Glu)4Tyr, 5 μM ATP, 1 nM JAK3, 25° C. As for the experimental part: as §1, §2, §3

pKi: −log10 of the molar value.

Take `CC(=O)N1CCCN(c2cc(-n3nc(Nc4ccc(NC(=O)OC(C)C)cc4)nc3N)ccn2)CC1`: the negative logarithm of the Ki (pKi) in test [1] is 6.30 to 7.30; in test [2] it was greater than 7.30.
